The values that follow come from ChEMBL document CHEMBL1149220, “1-(2-Naphthyl)-1H-pyrazole-5-carboxylamides as potent factor Xa inhibitors. Part 2: A survey of P4 motifs” (Bioorg Med Chem Lett, 2004).

By UniProt entry, the sequences of proteins in these tests, tags left out. Residues count along the entry.
UniProt P00742, 41-179 limits assumed: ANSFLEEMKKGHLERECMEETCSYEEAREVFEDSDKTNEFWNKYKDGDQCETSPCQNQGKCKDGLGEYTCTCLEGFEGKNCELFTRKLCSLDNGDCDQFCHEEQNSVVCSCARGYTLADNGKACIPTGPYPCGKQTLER
UniProt P00742, 235-488 limits assumed: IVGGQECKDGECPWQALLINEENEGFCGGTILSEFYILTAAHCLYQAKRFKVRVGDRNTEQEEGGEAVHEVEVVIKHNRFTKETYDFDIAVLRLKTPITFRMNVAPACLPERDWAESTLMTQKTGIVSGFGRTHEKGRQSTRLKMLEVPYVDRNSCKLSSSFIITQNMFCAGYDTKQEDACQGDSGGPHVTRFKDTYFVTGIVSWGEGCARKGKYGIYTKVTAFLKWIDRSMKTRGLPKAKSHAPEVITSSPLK

The target in the test is Coagulation factor X (Homo sapiens, UniProt P00742). Description: Inhibitory concentration against human Coagulation factor X.

As a reminder, the IC50 is the concentration that inhibits the measured activity by half.

Turning to `Cc1cc(C(=O)Nc2ncc(-c3ccccc3S(N)(=O)=O)cn2)n(-c2cc3ccccc3cc2S(C)(=O)=O)n1`, the IC50 came out at 36 nM.

Regarding `Cc1cc(C(=O)Nc2ccc(-c3ccccc3S(C)(=O)=O)cc2)n(-c2ccc3cc(Cl)ccc3c2)n1`, half-maximal inhibition (IC50) required 4 nM.
